Where a name gives a salt, the structure may show the parent alone. Values belong to the compound of their own block, whether it stands above or below them.
Columns and labels:
[1] = Water solubility of synthesized peptides
[2] = Acute toxicity test, tail vein injection (Bliss method); type: in vivo, Kunming mice; conditions: both sexes, Kunming, mouse, in vivo, iv; mice, tail vein injection, Bliss method; read-out: Median lethal dose LD50
Experimental: (§1) Sixteen healthy mice with a body weight of 18 to 22 g were selected which were not pregnant. They were provided with water but no food before the pilot trial. The protamine-like peptide was administrated at a dose (75 mg/kg) three times that of theoretically estimated one (25mg/kg). […] After administration, the mice were observed continuously for one week, and the general conditions such as the mental state as well as toxic response and death instances were recorded.
(§2) Based on the doses causing 0% and 100% mortality, the animals were divided into 6 groups with doses being respectively 25, 30, 35, 40, 45, and 50 mg/kg by using a dose ratio of about 0.85,
(§3) Seventy healthy mice which were not pregnant were taken and provided with water but no food prior to the test. The mice were randomly divided into six groups (10 mice per group) based on the body weight and the gender with half mice in each group being males. One group was injected with normal saline, and the other five groups were administrated with protamine-like peptides with different concentrations. On the day of test, mice in test groups received one dose via injection into tail veins whereas mice in control group received the same volume of normal saline. After administration, the mice were observed consecutively for two weeks, and the general conditions such as the mental state as well as toxic response and death instances were recorded.
(§4) Table 11. Median lethal dose calculated with Bliss method

Kunming mice = assay: as above; type: in vivo; conditions: for % Death (%): tail vein
Experimental: as §1, §2, §3, §4

water solubility [1]: good water solubility
SMILES: N[C@@H](Cc1c[nH]cn1)C(=O)N[C@@H](Cc1c[nH]cn1)C(=O)N[C@@H](Cc1c[nH]cn1)C(=O)N[C@@H](Cc1c[nH]cn1)C(=O)N[C@@H](Cc1c[nH]cn1)C(=O)N[C@@H](Cc1c[nH]cn1)C(=O)N[C@@H](Cc1c[nH]cn1)C(=O)N[C@@H](Cc1c[nH]cn1)C(=O)N[C@@H](Cc1c[nH]cn1)C(=O)N[C@@H](Cc1c[nH]cn1)C(=O)N[C@@H](Cc1c[nH]cn1)C(=O)N[C@@H](Cc1c[nH]cn1)C(=O)N[C@@H](Cc1c[nH]cn1)C(=O)N[C@@H](Cc1c[nH]cn1)C(=O)N[C@@H](Cc1c[nH]cn1)C(=O)O [H15, (H)15]

SMILES: N=C(N)NCCC[C@H](NC(=O)[C@H](CCCNC(=N)N)NC(=O)[C@H](CCCNC(=N)N)NC(=O)[C@H](CCCNC(=N)N)NC(=O)[C@H](CCCNC(=N)N)NC(=O)[C@H](CCCNC(=N)N)NC(=O)[C@H](CCCNC(=N)N)NC(=O)[C@H](CCCNC(=N)N)NC(=O)[C@H](CCCNC(=N)N)NC(=O)[C@H](CCCNC(=N)N)NC(=O)[C@H](CCCNC(=N)N)NC(=O)[C@H](CCCNC(=N)N)NC(=O)[C@H](CCCNC(=N)N)NC(=O)[C@H](CCCNC(=N)N)NC(=O)[C@@H](N)CCCNC(=N)N)C(=O)O [R15 sulfate, (R)15 sulfate]
water solubility [1]: good water solubility

SMILES: N=C(N)NCCC[C@H](NC(=O)[C@H](CCCNC(=N)N)NC(=O)[C@H](CCCNC(=N)N)NC(=O)[C@H](CCCNC(=N)N)NC(=O)[C@H](CCCNC(=N)N)NC(=O)[C@H](CCCNC(=N)N)NC(=O)[C@H](CCCNC(=N)N)NC(=O)[C@H](CCCNC(=N)N)NC(=O)[C@H](CCCNC(=N)N)NC(=O)[C@H](CCCNC(=N)N)NC(=O)[C@H](CCCNC(=N)N)NC(=O)[C@H](CCCNC(=N)N)NC(=O)[C@H](CCCNC(=N)N)NC(=O)[C@H](CCCNC(=N)N)NC(=O)[C@@H](N)CCCNC(=N)N)C(=O)O [R15, (R)15]
LD50 at 336 h [2]: 35.4 mg/kg
time of death after injection (Kunming mice; all death cases): ≤ 2 h
Regression probability unit (Y) (Kunming mice; dose 25 mg/kg): 3.2962
% Death (%) (Kunming mice; dose 25 mg/kg): 0.00%
Regression probability unit (Y) (Kunming mice; dose 30 mg/kg): 4.1897
Test probability unit (Y) (Kunming mice; dose 30 mg/kg): 4.476
% Death (%) (Kunming mice; dose 30 mg/kg): 30.00%
Regression probability unit (Y) (Kunming mice; dose 35 mg/kg): 4.9452
Test probability unit (Y) (Kunming mice; dose 35 mg/kg): 5
% Death (%) (Kunming mice; dose 35 mg/kg): 50.00%
Regression probability unit (Y) (Kunming mice; dose 40 mg/kg): 5.5996
Test probability unit (Y) (Kunming mice; dose 40 mg/kg): 5.524
% Death (%) (Kunming mice; dose 40 mg/kg): 70.00%
Regression probability unit (Y) (Kunming mice; dose 45 mg/kg): 6.1768
Test probability unit (Y) (Kunming mice; dose 45 mg/kg): 5.8415
% Death (%) (Kunming mice; dose 45 mg/kg): 80.00%
Regression probability unit (Y) (Kunming mice; dose 50 mg/kg): 6.6932
% Death (%) (Kunming mice; dose 50 mg/kg): 1E2%
time of death after injection (Kunming mice; groups with high doses (40mg / kg and 45mg / kg)): around 10 min
Median lethal dose LD50 (Kunming mice; mice, tail vein injection, Bliss method): 35.394 mg/kg
time of death after injection (Kunming mice; most mice of the death cases): ≤ 0.5 h
dose resulting in 0% mortality (Kunming mice; pilot trial, all 3 test mice survived): 25 mg/kg
dose causing 100% mortality (Kunming mice; pilot trial, all 3 test mice were dead): 50 mg/kg
time until survived mice returned to normal state (Kunming mice; survived mice): ~12 h
water solubility [1]: good water solubility

— patent EP2982680B1, “PROTAMINE PEPTIDOMIMETIC, AND PHARMACEUTICALLY ACCEPTABLE SALTS AND USE THEREOF” (Academy of Military Medical Sciences, priority 2013, dated 2014)
